Test results published in US8198405B2, “Stabilized alpha helical peptides and uses thereof” (Dana-Farber Cancer Institute, Inc., priority 2003, dated 2012).

Test system: leukemia cell lines tested (Jurkat, REH, MV4;11, SEMK2, RS4;11)
Assay: MTT assay, panel statement
Conditions: same dose range as SAHB3BIDA

For CCCC[C@H](NC(=O)[C@]1(C)CCCC=CCCC[C@](C)(NC(=O)[C@H](C)NC(=O)[C@H](CC(C)C)NC(=O)[C@H](Cc2c[nH]cn2)NC(=O)[C@H](CCCNC(=N)N)NC(=O)[C@H](C)NC(=O)[C@@H](NC(=O)[C@H](CC(N)=O)NC(=O)[C@H](CCCNC(=N)N)NC(=O)[C@@H](NC(=O)[C@@H](NC(=O)[C@H](CC(=O)O)NC(=O)[C@H](CCC(=O)O)NC(C)=O)[C@@H](C)CC)[C@@H](C)CC)[C@@H](C)CC)C(=O)N[C@@H](C(C)C)C(=O)N[C@@H](CCC(=O)O)C(=O)N[C@@H](CC(=O)O)C(=O)N1)C(=O)N[C@@H](CC(=O)O)C(=O)N[C@@H](CCCNC(=N)N)C(=O)N[C@@H](CO)C(=O)N[C@H](C(=O)N[C@@H](Cc1c[nH]c2ccccc12)C(N)=O)[C@@H](C)CC [SAHB3BID(G→E)A] (Ac-EDIIRNIARHLA[S5]VED[S5][Nle]DRSIW-NH2; staple 13-17; N-terminus assumed), the “metabolic arrest, in words” value was “essentially no effect”.

Where a SMILES comes first, the peptide text is derived from it. Bridges are numbered along the chain shown (N, C = ends). [ ]: non-standard residue; d: D form. S5 = C=CCCC[C@](C)(N)C(=O)O; Nle = CCCC[C@H](N)C(=O)O
